Source: PubChem BioAssay AID492953 (The Scripps Research Institute Molecular Screening Center, 2010)
The entries are a selection whose mix differs from that of the whole data set. The source made the active and inactive calls.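 The calls were made as follows: active = inhibition above the mean of all tested compounds plus 3 SD (cut at about 24% in these data); inactive = the rest.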

Sequences of proteins named here, by UniProt entry; tags and fusion partners are left off. A change or cut given only in a name is not applied to a line headed by its entry.
UniProt P68402: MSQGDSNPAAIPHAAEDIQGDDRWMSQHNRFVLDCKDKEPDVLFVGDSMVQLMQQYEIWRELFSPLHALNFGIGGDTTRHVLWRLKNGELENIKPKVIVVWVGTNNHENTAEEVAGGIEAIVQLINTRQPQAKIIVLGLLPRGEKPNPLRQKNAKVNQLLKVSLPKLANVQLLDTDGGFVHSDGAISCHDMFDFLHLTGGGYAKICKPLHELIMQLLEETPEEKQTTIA

Molecular target: Platelet-activating factor acetylhydrolase IB subunit alpha2 (Homo sapiens) (UniProt P68402)
Experiment: PAFAH1B2 enzyme inhibitors, primary screen, biochemical, fluorescence polarization, human (AID 492953);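 also: 0% = enzyme with DMSO and 100% = wells lacking PAFAH1B2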
Details: recombinant PAFAH1B2, FP-rhodamine activity probe, at 3.39 µM, stronger effect = higher value

Compound | inhibition
CC1(CBr)Cn2c(nc3ccccc3c2=O)S1 (stereo not drawn) | inactive: 7.58%
CN(C(=O)Cc1ccc(Cl)c(Cl)c1)[C@@H]1CCCC[C@H]1N1CCCC1 | inactive: 6.74%
CC(C)/C=N\N=C(\N)N[N+](=O)[O-] | inactive: 3.89%
COc1ccccc1CNC(=O)COC(=O)C(O)(c1ccccc1)c1ccccc1 | inactive: -1.54%
Clc1n[nH]nc1-c1nn[nH][15n]1 | inactive: 4.53%
CC(C)(C)C(=O)NC(Sc1ncccn1)C(Cl)(Cl)Cl (stereo not drawn) | inactive: 4.36%
CCOP(=O)(Nc1ccc(C)cn1)OCC | inactive: 5.13%
CCC1=CC2Cc3nc4ccc(Cl)cc4c(N)c3C(C1)C2 (stereo not drawn) | inactive: -1.24%
O=P1(Nc2ccccn2)COc2ccccc2OC1 | inactive: -2.15%
CCOP(=O)(NC(=NC(C)c1ccccc1)NC(C)c1ccccc1)OCC (stereo not drawn) | inactive: 4.29%
NS(=O)(=O)c1cccc(NC(=O)COC(=O)C(O)(c2ccccc2)c2ccccc2)c1 | inactive: -1.86%
O=P1(Nc2ccc(Br)cn2)COc2ccccc2OC1 | inactive: 1.24%
O=[As](O)(c1cccs1)c1cccs1 | inactive: 0.37%
Cc1ccc(OCC(=O)OC2CN3CCC2CC3)cc1 (stereo not drawn) | inactive: 0.09%
Nc1cccc([As](=O)(O)c2ccccc2)c1 | inactive: 2.1%
O=P1(Nc2ncccn2)COc2ccccc2OC1 | inactive: 6.84%
O=C(/C=C/c1ccccc1)OC1CN2CCC1CC2 (stereo not drawn) | inactive: 4.1%
CCCC1OP(=O)(Nc2ccccc2)OCC1CC (stereo not drawn) | inactive: 6.44%
CN(C)C1(CNC(=O)c2ccc(S(C)(=O)=O)cc2)CCCCC1 | inactive: -4.19%
Cc1nn(-c2ccccc2)c2c1P(=O)(N1CCOCC1)N(C)C(c1ccccc1)=N2 (stereo not drawn) | inactive: 9.57%
Cc1ccc(C(=O)OC2CN3CCC2CC3)cc1 (stereo not drawn) | inactive: 0.5%
CC1CCC(C(C)C)C(OP(=O)(Nc2ccccn2)c2ccccc2)C1 (stereo not drawn) | inactive: 20.1%
CN(C)C(=O)c1cc([N+](=O)[O-])cc2c1-c1c(cc([N+](=O)[O-])cc1[N+](=O)[O-])C2=O | inactive: 22.1%
O=[N+]([O-])c1ccc2c(c1)nnn2O | inactive: 2.79%
CN(C(=O)Cc1ccc(Cl)c(Cl)c1)[C@H]1CC[C@@]2(CCCO2)C[C@@H]1N1CCCC1 | inactive: 3.02%
N#CCCN(C(=O)COC(=O)C(O)(c1ccccc1)c1ccccc1)c1ccc(F)cc1 | inactive: 0.16%
CCOP1(=S)c2c(C)nn(CCC#N)c2N=C(c2ccc(F)cc2)N1C (stereo not drawn) | inactive: -4.27%
CN(C(=O)Cc1ccccc1)[C@@H]1CC[C@]2(CCCO2)C[C@H]1N1CCCC1 | inactive: 3.83%
